Results from PubChem BioAssay AID1532 (PCMD, 2009).
This is a selection; strong and weak results do not stand in their true shares. Some salts or complexes appear as unconnected parts, following the source record. Activity calls are given as the source filed them. Cut-off read from the data, not from the text of the source: active = inhibition above about 30% (passing the limit was not always enough); inconclusive = no clear call, values can overlap the other calls.

system: RmlC (dTDP-4-dehydrorhamnose 3,5-epimerase) and RmlD (dTDP-4-dehydrorhamnose reductase), coupled enzyme assay; assay: RmlC and RmlD coupled enzyme inhibitors, primary screen, biochemical, 384-well, compound mixtures, retest (AID 1532); settings: 384-well mixture HTS, at 5.5 µM, stronger effect = higher value

Row | SMILES | inhibition
1 | CP(=O)(NC(=O)Nc1ccccc1)Oc1ccccc1 (stereo not drawn) | inactive: -4.81%
2 | CCOP(C)(=S)SCC(=O)NC(C)C(=O)O (stereo not drawn) | inactive: 7.17%
3 | CP(=O)(Nc1ccccn1)Oc1ccc(Cl)cc1 (stereo not drawn) | inactive: -10%
4 | CP(=S)(Nn1cnnc1)Oc1ccccc1 (stereo not drawn) | inactive: -9.56%
5 | COc1ccccc1OP(C)(=O)Nc1ccc(C)cc1 (stereo not drawn) | inactive: -10.6%
6 | Cc1cc(C)cc(OP(C)(=O)Nc2ccc(C)cc2C)c1 (stereo not drawn) | inactive: 8.33%
7 | Cc1ccc(C)c(NP(C)(=O)Oc2ccccc2)c1 (stereo not drawn) | inactive: -9.78%
8 | Cc1cc(C)cc(OP(C)(=O)Nc2ccccn2)c1 (stereo not drawn) | inactive: -12.7%
9 | COc1ccccc1OP(C)(=O)Nc1c(C)cccc1C (stereo not drawn) | inactive: -19.2%
10 | Cc1nc2ccc3ccccc3c2s1.O=[N+]([O-])c1cc([N+](=O)[O-])c(O)c([N+](=O)[O-])c1 | inactive: 11%
11 | CCOP(C)(=S)SCC(=O)NC(C)(CC)C(=O)O (stereo not drawn) | inactive: -7.72%
12 | CP(=O)(Nc1ccc2c(c1)OCCO2)Oc1ccccc1 (stereo not drawn) | inactive: 7.06%
13 | Cc1ccccc1NP(C)(=O)Nc1ccccc1C | inactive: 3.38%
14 | COc1ccc(OP(C)(=O)Nc2cccc(Br)c2)cc1 (stereo not drawn) | inactive: -7.7%
15 | CN(C)CCOC(=O)C(O)(c1ccccc1)C1CCCCC1 (stereo not drawn) | inactive: 1.99%
16 | CCN(CC)CCCOC(=O)C(O)(c1ccccc1)C1CCCCC1 (stereo not drawn) | inactive: 4.39%
17 | CP(=O)(Nc1ccccc1)Oc1ccc(F)cc1 (stereo not drawn) | inactive: 6.69%

Row | SMILES | inhibition
18 | CP(=O)(Nc1ccccc1F)Oc1ccccc1 (stereo not drawn) | inactive: 10.1%
19 | COc1ccc2c(c1O)-c1c(O)c(OC)cc3c1[C@H](C2)[N+](C)(C)CC3.O=[N+]([O-])c1cc([N+](=O)[O-])c([O-])c([N+](=O)[O-])c1[O-] | inactive: 15.8%
20 | COc1ccc(OP(C)(=O)Nc2ccccn2)cc1 (stereo not drawn) | inactive: -14.8%
21 | CN(C)CCOC(=O)C(O)(c1ccccc1)C1CCCC1 (stereo not drawn) | inactive: 30.8%
22 | Cc1c(NP(C)(=O)Oc2ccc(C(C)C)cc2)c(=O)n(-c2ccccc2)n1C (stereo not drawn) | inactive: -9.63%
23 | COc1ccccc1OP(C)(=O)Nc1ccc(C)cc1C (stereo not drawn) | inactive: -8.3%
24 | CP(=O)(Nc1ccccn1)Oc1ccccc1 (stereo not drawn) | inactive: -50.5%
25 | CCc1ccc(OP(C)(=O)O)cc1 | inactive: 49.1%
26 | COc1ccccc1OP(C)(=O)Nc1ccc(C)c(C)c1 (stereo not drawn) | inactive: 7.53%
27 | Cc1nc2ccc3ccccc3c2o1.O=[N+]([O-])c1cc([N+](=O)[O-])c(O)c([N+](=O)[O-])c1 | inactive: 16.5%
28 | CP(=O)(OC12CC3CC(CC(C3)C1)C2)OC12CC3CC(CC(C3)C1)C2 | inactive: -9.74%
29 | CCN(CC)CC(O)COC(=O)C(O)(c1ccccc1)C1CCCCC1 (stereo not drawn) | inactive: 4.19%
30 | COc1ccccc1OP(C)(=O)Nc1c(C)n(C)n(-c2ccccc2)c1=O (stereo not drawn) | inactive: 3.11%
31 | CP(=O)(Oc1ccccc1)N1CCOC1=O (stereo not drawn) | inactive: -19%
32 | CC(C)(C)c1ccc(OP(C)(=O)O)cc1 | inactive: 5.88%
33 | CP(=O)(Nc1ccc(Cl)cc1)Oc1ccc(F)cc1 (stereo not drawn) | inactive: 2.32%
